Test results reported in US11142554B2 (MASSACHUSETTS INSTITUTE OF TECHNOLOGY, priority 2015, dated 2021).

Amino acid sequences for entries named in this document (tags omitted). A change or cut given only in a name is not applied to a line headed by its entry. Residues count along the entry.
UniProt Q07820, whole entry, looked up: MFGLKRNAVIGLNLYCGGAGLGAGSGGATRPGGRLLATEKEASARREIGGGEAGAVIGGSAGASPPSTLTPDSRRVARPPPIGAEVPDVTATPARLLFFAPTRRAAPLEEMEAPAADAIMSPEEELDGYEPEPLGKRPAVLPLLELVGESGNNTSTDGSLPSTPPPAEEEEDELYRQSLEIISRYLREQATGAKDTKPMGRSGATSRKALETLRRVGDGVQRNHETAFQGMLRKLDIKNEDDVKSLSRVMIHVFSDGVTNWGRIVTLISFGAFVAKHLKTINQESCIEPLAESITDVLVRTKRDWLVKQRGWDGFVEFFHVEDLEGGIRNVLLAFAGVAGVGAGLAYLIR
UniProt Q16548: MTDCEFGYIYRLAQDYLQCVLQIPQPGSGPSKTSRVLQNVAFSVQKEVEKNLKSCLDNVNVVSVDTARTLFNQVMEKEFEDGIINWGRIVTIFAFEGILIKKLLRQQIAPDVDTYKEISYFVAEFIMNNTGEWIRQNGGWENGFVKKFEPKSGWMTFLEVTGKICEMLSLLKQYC
UniProt Q07817, whole entry, looked up: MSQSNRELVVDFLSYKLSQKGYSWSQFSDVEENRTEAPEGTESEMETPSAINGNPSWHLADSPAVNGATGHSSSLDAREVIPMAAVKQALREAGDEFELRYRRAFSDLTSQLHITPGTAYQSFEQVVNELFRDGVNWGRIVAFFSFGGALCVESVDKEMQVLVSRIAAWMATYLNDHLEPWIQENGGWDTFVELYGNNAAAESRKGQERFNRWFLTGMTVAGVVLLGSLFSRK
UniProt P10415, whole entry, looked up: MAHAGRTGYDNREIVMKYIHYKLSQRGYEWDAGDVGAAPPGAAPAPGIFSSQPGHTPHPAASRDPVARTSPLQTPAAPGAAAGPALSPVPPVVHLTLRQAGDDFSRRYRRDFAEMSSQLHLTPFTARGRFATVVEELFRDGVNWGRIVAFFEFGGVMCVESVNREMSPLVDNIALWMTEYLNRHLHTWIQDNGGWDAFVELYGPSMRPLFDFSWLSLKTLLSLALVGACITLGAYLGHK
UniProt Q92843, 2-193 limits assumed: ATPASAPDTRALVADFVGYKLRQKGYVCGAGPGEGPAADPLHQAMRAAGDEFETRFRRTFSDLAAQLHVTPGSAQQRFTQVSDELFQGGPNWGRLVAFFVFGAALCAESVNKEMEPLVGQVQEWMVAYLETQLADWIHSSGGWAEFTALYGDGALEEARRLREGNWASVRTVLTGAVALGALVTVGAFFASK

Legend:
[1] = biological target: Mcl-1 (Homo sapiens, UniProt Q07820); assay: receptor | Mcl-1; conditions: read-out: receptor | Mcl-1
[2] = biological target: Bfl-1 (Homo sapiens, UniProt Q16548); assay: receptor | Bfl-1
[3] = biological target: Bcl-xL (Homo sapiens, UniProt Q07817); assay: receptor | Bcl-xL
[4] = biological target: Bcl-2 (Homo sapiens, UniProt P10415); assay: receptor | Bcl-2
[5] = biological target: Bcl-w (Homo sapiens, UniProt Q92843); assay: receptor | Bcl-w

Sequence	Kd [1]	Kd [2]	Kd [3]	Kd [4]	Kd [5]
RPEIWLTQSLQRLGDEINAYYAR [MS2]	0.0015 ± 0.0012 µM	3.1 ± 2.3 µM	1.4 ± 0.5 µM	6.2 ± 4.1 µM	0.25 ± 0.076 µM
RPEIWMTQGLRRLGDEINAYYAR [MS1]	–	–	–	2.3 ± 1.5 µM	1.3 ± 0.23 µM
